Test system: patients with NYHA Class II or III CHF
Assay: Renal function in CHF patients after single intravenous dose (Example 1)
Details: 0-2 hours, mean, single i.v. dose

CCCn1c(=O)c2nc(C3CC4CC3C3OC43)[nH]c2n(CCC)c1=O [BG9719, 1,3-dipropyl-8-[5,6-exo-epoxy)-2(S) norbornyl] xanthine]
RPF: 334 mL/min/1.73 m^2
